The chains behind the UniProt entries cited, without tags or fusion partners. Where a name states a change or a piece, a line headed by the entry shows the natural chain unless it says otherwise.
UniProt P35372, whole entry, looked up: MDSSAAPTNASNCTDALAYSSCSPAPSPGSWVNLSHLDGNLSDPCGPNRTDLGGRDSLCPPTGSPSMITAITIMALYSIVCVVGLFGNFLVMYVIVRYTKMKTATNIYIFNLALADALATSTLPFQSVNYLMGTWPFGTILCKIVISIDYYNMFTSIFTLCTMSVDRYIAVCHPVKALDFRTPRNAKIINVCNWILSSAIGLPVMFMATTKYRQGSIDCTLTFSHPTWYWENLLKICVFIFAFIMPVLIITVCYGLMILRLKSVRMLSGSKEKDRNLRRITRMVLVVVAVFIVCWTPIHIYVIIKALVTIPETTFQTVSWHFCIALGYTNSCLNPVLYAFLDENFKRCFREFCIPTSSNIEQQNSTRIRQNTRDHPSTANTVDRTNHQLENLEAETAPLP
UniProt P41146: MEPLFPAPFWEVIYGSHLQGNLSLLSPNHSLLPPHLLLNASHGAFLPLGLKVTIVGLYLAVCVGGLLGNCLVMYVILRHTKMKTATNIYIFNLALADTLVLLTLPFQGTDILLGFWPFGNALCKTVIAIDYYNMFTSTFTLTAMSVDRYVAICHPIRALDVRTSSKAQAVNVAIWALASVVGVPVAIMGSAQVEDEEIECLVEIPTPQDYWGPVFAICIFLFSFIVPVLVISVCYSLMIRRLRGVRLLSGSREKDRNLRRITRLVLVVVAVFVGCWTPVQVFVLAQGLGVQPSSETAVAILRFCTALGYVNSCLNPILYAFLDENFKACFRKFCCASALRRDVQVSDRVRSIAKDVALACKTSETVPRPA

In patent US10793528B2 (priority 2016, dated 2020):

How the values were obtained:
[1] = molecular target: human mu-opioid receptor (hMOP) (Homo sapiens (Human), UniProt P35372); assay: hMOP receptor binding assay (SPA, [3H]naloxone); conditions: read-out: hMOP Ki
[2] = molecular target: human nociceptin/orphanin FQ peptide receptor (hNOP) (Homo sapiens (Human), UniProt P41146); assay: hNOP receptor binding assay (SPA, [3H]nociceptin); conditions: read-out: hNOP Ki

SMILES	Ki [1] [nM]	Ki [2] [nM]
CN(C)C1(c2ccccc2)CCC2(CC1)CN(CCC(=O)N1CC[C@H](O)[C@H](O)C1)C(=O)N2CC1CCC1 (relative stereo)	33	6.6
CN(C)C1(c2ccccc2)CCC2(CC1)CN(CCC(=O)N1C[C@@H](O)[C@@H](O)C1)C(=O)N2CC1CCC1 (relative stereo)	24.5	10.6
